Experimental data published in patent US5574070A, “Substituted guanidines having high binding to the sigma receptor and the use thereof” (priority 1993, dated 1996).

Tested on: sigma receptor
Assay: [3H]DTG displacement radioligand binding assay, guinea pig brain membranes

In the case of CN(C(=O)Cc1ccc(Cl)c(Cl)c1)[C@@H]1CCCC[C@H]1N1CCCC1 (relative stereo), the “affinity for / displacement at the [3H]DTG binding site” value is reported as “moderate affinity” and the IC50 (read-out: IC50 vs. [3H]DTG, Table III, ± SEM, average from 2-4 separate experiments in triplicate) is reported as 1350 nM.
